The values that follow are results of earlier work, collected in patent US20190022240A1, “Design of pH-Sensitive Oligopeptide Complexes For Drug Release Under Mildly Acidic Conditions” (University of Southern California, priority 2013, published 2019).

For the data set the following is noted: in vivo.

In the case of KLALKLALKALKAALKLA [MAP], the pharmacokinetic half-life result was “greater than 72 h”.
